The values below are quoted from earlier work in patent publication US8030083B2, “Method of analyzing protein structural affinity relationship” (Eisai R & D Management Co., Ltd., priority 2004, dated 2011).

The data set deals with GSK-3α/β. As to conditions: Knockaert et al.; cited from earlier work.

For `O=C1Cc2c([nH]c3ccccc23)-c2ccccc2N1` [paullone], the “inhibition of GSK-3α/β” value is recorded as “inhibitor”.
